{"source": "PubChem BioAssay AID743279", "about": "(National Center for Advancing Translational Sciences (NCATS), 2014)", "note": "The list shows a part of the results, in another mix than the full data. Inconclusive results are not listed. Some salts or complexes appear as unconnected parts, following the source record. Active and inactive are the calls of the source. Cut-off read from the data, not from the text of the source: active = activity change below about -50%; inconclusive = mostly about -30% to -49%; inactive = weaker than that."}
{"assay": "qHTS for Inhibitors of Inflammasome Signaling: IL-1-beta AlphaLISA Primary Screen", "details": "THP-1 LPS/ATP IL-1B secretion, 16 h; at 57.5 µM, hits give low values", "description": "Inflammasomes are a set of intracellular multi-protein complexes that enable autocatalytic activation of inflammatory caspases and drive the innate immune response to counter harmful agents. […] A qHTS assay, based on AlphaLISA technology, was developed to screen the Molecular Libraries Small Molecule Repository (MLSMR) to look for novel inflammasome inhibitors. The assay detects IL-1B using AlphaLISA anti-IL-1B acceptor and donor beads. A decreased emission signal, indicating reduced IL-1B secretion, is the desired outcome for this assay. NIH Chemical Genomics Center [NCGC] NIH Molecular Libraries Probe Centers Network [MLPCN] MLPCN Grant: MH095513 Assay Provider: Shyam Biswal Ph.D., Johns Hopkins University Immunity. 2012 Jul 27;37(1):85-95. PMID: 22819042 [2] Curr Pharm Des. 2012;18(16):2320-8. PMID: 22390695\nThree microliters containing 3000 THP-1 cells were dispensed into the wells of solid, white, tissue culture treated Greiner 1,536-well plates. Library compounds and positive control, Glyburide, were pin-transferred (23 nL) by a Kalypsys pin-tool equipped with a 1,536-pin array, resulting in final compound concentration ranges of 2.5 nM to 57.5 uM. After 1 hr of cell culture incubation (37 °C, 5% CO2), 1 microL of 1 microg/mL lipopolysaccharide (250 ng/mL, final) and 5 mM ATP (1.25 mM, final) were added to stimulate the cells. After 16 hr of cell culture incubation with the compounds, 1.5 uL of anti-IL-1B acceptor beads (6 ug/mL, final) and biotinylated antibody (0.6 nM, final) were added to the plate, followed by a 1 hr incubation at ambient temperature. To detect the secreted IL-1B, 1.5 uL of AlphaLISA SA-Donor beads (24 ug/mL, final) were added, followed by 30 min of incubation in the dark at ambient temperature. The AlphaLISA signal was read by a PerkinElmer EnVision plate reader with an ultrasensitive luminescence detector and 1536 Plate HTS AlphaScreen aperture (excitation of 680nm and emission of 615nm)."}
{"molecule": "O=c1[nH]c2ccccc2n1C1CCN(C(c2ccccc2)c2nnnn2C2CCCCC2)CC1", "note": "(configuration not stated); for activity change: % is set by controls: 0 for no effect and ±100 for the full control effect", "activity change": "inactive: 0%"}
{"molecule": "CCOC(=O)N1CCC(Nc2cccc(C)c2)CC1", "activity change": "inactive: -5.4%"}
{"molecule": "COc1cc(C(=O)NCC2(N(C)C)CCCCC2)ccc1OC(F)F", "activity change": "inactive: -14.5%"}
{"molecule": "CC(C)(C)OC(=O)N1CCC(N(C(=O)c2ccccc2)c2ccc(F)cc2)CC1", "activity change": "inactive: 16.5%"}
{"molecule": "COc1ccc(C(=O)NCC2(N3CCCCC3)CCCCC2)c(OC)c1OC", "activity change": "inactive: -0.661%"}
{"molecule": "CCC(c1nnnn1C1CCCC1)N1CCC(n2c(=O)[nH]c3ccccc32)CC1", "note": "(configuration not stated)", "activity change": "inactive: -13.9%"}
{"molecule": "COc1ccc(C(=O)NCC2(N3CCCCC3)CCCCC2)cc1", "activity change": "inactive: 4.98%"}
{"molecule": "O=C(NCC1(N2CCCCC2)CCCCC1)c1cccs1", "activity change": "inactive: -2.68%"}
{"molecule": "CCCCn1nnnc1C(CC)N1CCC(n2c(=O)[nH]c3ccccc32)CC1", "note": "(configuration not stated)", "activity change": "inactive: -27.3%"}
{"molecule": "CCCCn1nnnc1C(c1cccs1)N1CCC(n2c(=O)[nH]c3ccccc32)CC1", "note": "(configuration not stated)", "activity change": "inactive: 0%"}
{"molecule": "O=C(NCC1(N2CCCCC2)CCCCC1)c1ccc(=O)[nH]c1", "activity change": "inactive: 6.98%"}
{"molecule": "Cc1cccc(NC2(C#N)CCN(Cc3ccccc3)CC2)c1", "activity change": "inactive: -0.279%"}
{"molecule": "CSc1ccccc1C(=O)NCC1(N2CCCCC2)CCCCC1", "activity change": "inactive: -5.77%"}
{"molecule": "Cc1cc(C)cc(N(C(=O)c2ccccc2)C2CCN(C(=O)OC(C)(C)C)CC2)c1", "activity change": "active"}
{"molecule": "O=C(NCC1(N2CCCCC2)CCCCC1)c1ccc(Cl)nc1", "activity change": "inactive: -19.4%"}
{"molecule": "O=c1[nH]c2ccccc2n1C1CCN(C(c2ccccc2OC(F)(F)F)c2nnnn2C2CCCCC2)CC1", "note": "(configuration not stated)", "activity change": "inactive: -29.4%"}
{"molecule": "O=C(NCC1(N2CCOCC2)CCCCC1)c1cc2ccccc2o1", "activity change": "inactive: -4.42%"}
{"molecule": "COc1ccc(Cl)cc1C(=O)NCC1(N2CCOCC2)CCCCC1", "activity change": "inactive: -29.4%"}
{"molecule": "O=C1C(O)=C([N+](=O)[O-])C(=O)C(O)=C1[N+](=O)[O-]", "activity change": "inactive: -2.25%"}
{"molecule": "N#CC1(Nc2ccccc2)CCN(Cc2ccccc2)CC1", "activity change": "inactive: 0%"}
{"molecule": "O=C(NCC1(N2CCCCC2)CCCCC1)c1ccc(Cl)s1", "activity change": "inactive: -4.58%"}
{"molecule": "O=C(OC1CN2CCC1CC2)C1c2ccccc2Oc2ccccc21", "note": "(configuration not stated)", "activity change": "inactive: -10.7%"}
{"molecule": "O=c1[nH]c2ccccc2n1C1CCN(C(c2cc3ccccc3o2)c2nnnn2C2CCCCC2)CC1", "note": "(configuration not stated)", "activity change": "inactive: 0%"}
{"molecule": "CCCCn1nnnc1C(c1ccc(OC)cc1)N1CCC(n2c(=O)[nH]c3ccccc32)CC1", "note": "(configuration not stated)", "activity change": "inactive: -26.2%"}
{"molecule": "CCOC(=O)N1CCC(Nc2ccc(OC)cc2)CC1", "activity change": "inactive: -4.41%"}
{"molecule": "CC(C)c1ccc(NC2CCN(C(=O)OC(C)(C)C)CC2)cc1", "activity change": "active"}
{"molecule": "CCCCn1nnnc1C(c1ccccc1OC(F)(F)F)N1CCC(n2c(=O)[nH]c3ccccc32)CC1", "note": "(configuration not stated)", "activity change": "inactive: -20.9%"}
{"molecule": "O=[N+]([O-])c1cc([N+](=O)[O-])c(OC2CCCCC2O)c([N+](=O)[O-])c1", "note": "(configuration not stated)", "activity change": "inactive: 22.2%"}
{"molecule": "CN(C)c1cccc(C(=O)NCC2(N3CCCCC3)CCCCC2)c1", "activity change": "inactive: 37.5%"}
{"molecule": "COc1ccc(CN(CCCl)CCCl)cc1Cl", "activity change": "inactive: -5.69%"}
{"molecule": "O=C(NCC1(N2CCOCC2)CCCCC1)c1cc(F)c(F)cc1Cl", "activity change": "inactive: -8.58%"}
{"molecule": "CCC(c1nnnn1C(C)(C)C)N1CCC(n2c(=O)[nH]c3ccccc32)CC1", "note": "(configuration not stated)", "activity change": "inactive: -28.8%"}
{"molecule": "COc1cc(OC)c(C(=O)NCC2(N(C)C)CCCCC2)cc1OC", "activity change": "inactive: -4.4%"}
{"molecule": "CCCCn1nnnc1C(c1ccnc2ccccc12)N1CCC(n2c(=O)[nH]c3ccccc32)CC1", "note": "(configuration not stated)", "activity change": "inactive: -15.2%"}
{"molecule": "O=C(OC1CN2CCC1CC2)c1ccc([N+](=O)[O-])cc1", "note": "(configuration not stated)", "activity change": "active: -69.5%"}
{"molecule": "CN1CCC(Nc2cccc(F)c2)CC1", "activity change": "inactive: -24.1%"}
{"molecule": "COc1ccc2c(c1O)-c1c(O)c(OC)cc3c1[C@H](C2)[N+](C)(C)CC3.O=[N+]([O-])c1cc([N+](=O)[O-])c([O-])c([N+](=O)[O-])c1[O-]", "activity change": "inactive: 23.8%"}
{"molecule": "O=C(NCC1(N2CCCCC2)CCCCC1)c1cncc(Br)c1", "activity change": "inactive: 5.69%"}
{"molecule": "O=[N+]([O-])c1cc([N+](=O)[O-])c(Nc2ccc(Cl)cc2)c([N+](=O)[O-])c1", "activity change": "inactive: 0%"}
{"molecule": "COc1ccc(C(c2nnnn2C2CCCC2)N2CCC(n3c(=O)[nH]c4ccccc43)CC2)cc1", "note": "(configuration not stated)", "activity change": "inactive: 17.6%"}
{"molecule": "CCCOc1ccc(C(=O)NCC2(N(C)C)CCCCC2)cc1OC", "activity change": "inactive: -13.2%"}
{"molecule": "Cc1ccc(C(=O)NCC2(N(C)C)CCCCC2)o1", "activity change": "inactive: 3.77%"}
{"molecule": "O=C(NCC1(N2CCCCC2)CCCCC1)c1ccc(OC(F)F)cc1", "activity change": "inactive: -17.2%"}
{"molecule": "CC(C)(C)n1nnnc1C(c1ccccc1OC(F)(F)F)N1CCC(n2c(=O)[nH]c3ccccc32)CC1", "note": "(configuration not stated)", "activity change": "active"}
{"molecule": "O=c1[nH]c2ccccc2n1C1CCN(C(c2ccccc2OC(F)(F)F)c2nnnn2C2CCCC2)CC1", "note": "(configuration not stated)", "activity change": "active"}
{"molecule": "N#CC1(Nc2ccccc2)CCN(CCc2ccccc2)CC1", "activity change": "inactive: 0.223%"}
{"molecule": "CCN1CCC(Nc2ccc(Cl)cc2)CC1", "activity change": "inactive: -7.62%"}
{"molecule": "CSc1ccc(C(=O)NCC2(N3CCOCC3)CCCCC2)cc1", "activity change": "inactive: -19.9%"}
{"molecule": "O=C(NCC1(N2CCCCC2)CCCCC1)c1cccc([N+](=O)[O-])c1", "activity change": "inactive: 0.204%"}
{"molecule": "O=[N+]([O-])c1cc([N+](=O)[O-])c(NCC2CCS(=O)(=O)C2)c([N+](=O)[O-])c1", "note": "(configuration not stated)", "activity change": "active: -136%"}
{"molecule": "O=C(NCC1(N2CCCCC2)CCCCC1)c1cccc(C(F)(F)F)c1", "activity change": "inactive: -14.9%"}
{"molecule": "COc1cc(C(=O)NCC2(N3CCCCC3)CCCCC2)ccc1OC(F)F", "activity change": "inactive: 18.9%"}
{"molecule": "O=C(NCC1(N2CCOCC2)CCCCC1)c1cc(=O)[nH]c2ccccc12", "activity change": "inactive: -15.7%"}
{"molecule": "CN1CCN(CCOC(=O)C(O)(c2ccccc2)c2ccccc2)CC1", "activity change": "inactive: 4.17%"}
{"molecule": "CC(C)c1ccc(C(=O)NCC2(N3CCOCC3)CCCCC2)cc1", "activity change": "inactive: -5.04%"}
{"molecule": "COc1ccc(NC2CCN(C(=O)OC(C)(C)C)CC2)cc1", "activity change": "inactive: 6.73%"}
{"molecule": "CCCCn1nnnc1C(c1cccc2ccccc12)N1CCC(n2c(=O)[nH]c3ccccc32)CC1", "note": "(configuration not stated)", "activity change": "active"}
